# Assay outcomes as filed in PubChem BioAssay.
# Most compounds without a hit are left out; they make up all but 1.6% or so of the library.
# ARNT-TACC3 inh – disruptors of human ARNT/TACC3 interaction | Q9Y6A5 | AlphaScreen His-ARNT PAS-B/GST-TACC3 binding, luminescence; TACC3 fragment carries E629A point mutation | inhibition, % at 9.99 µM | 0.66% of 390,000 active | AID 623870;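 active means mean inhibition of replicates at least 50% and at least half of replicates each reaching 50%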
# UUG fidelity – alters start codon recognition fidelity in yeast. S. cerevisiae UUG-firefly luciferase reporter, luminescence/redox ratio. AID 602363. activity score, % at 18.7 µM. hit rate 0.13% among 350,000;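 active = replicate mean at a twofold rise or more, about +100% in these data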;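 note: firefly luciferase made from a UUG start codon reports start codon fidelity; reporter light over untreated wells divided by growth signal over untreated wells; some hits fall short of that in this replicate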
# CAL PDZ FP-1 – inhibitors of human CAL PDZ peptide binding; Q9HD26; purified CAL PDZ, TMR-peptide fluorescence polarization, 1 h; inhibition, % at 24.9 µM; 0.92% of 300,000 active; AID 602252;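 active means mean inhibition of at least 30% with at least half of replicates also reaching 30%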
# PglD inh – PglD (C. jejuni) enzyme inhibition; purified PglD enzyme, DTNB colorimetric CoA detection; inhibition, % at 12.5 µM; AID 602405; 0.098% of 360,000 active; in the data active means inhibition above about 16%, passing the limit was not always enough
# Vif imaging – inhibitors of HIV Vif. inhibition, % at 7.49 µM. HEK293T cells, Vif self-association by quenched fluorescence, imaging, 24 h. 0.35% of 340,000 active. AID 602346; in the data active means inhibition above about 50%, passing the limit was not always enough
# CAL PDZ FP-2 – human CAL PDZ-peptide interaction inhibition | Q9HD26 | purified CAL PDZ, TMR-peptide fluorescence polarization, 1 h | inhibition, % at 20 µM | 0.02% of 330,000 active;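 active means highest replicate inhibition of at least 40%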
#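 Read-out basis: mP drop reported as inhibition | Assay system: Tagged CAL PDZ protein CerCALP, purified | Benchmarks: Unlabelled peptide for full inhibition, DMSO wells as neutral | Schedule: 1 h incubation at room temperature before polarization reading | Buffer or medium: Sodium phosphate/NaCl buffer pH 7.4 with TCEP, IgG, Thesit | Doses: Single point, 20 µM | Measured by: Fluorescence polarization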
# Numbers stand for hits; - = inactive; . = no result given.
SMILES,ARNT-TACC3 inh,UUG fidelity,CAL PDZ FP-1,PglD inh,Vif imaging,CAL PDZ FP-2
COC(=O)c1cn(NC(=O)Cc2c(F)cccc2Cl)c(=O)c2ccccc12,-,.,-,.,-,-
O=C(Nn1cc(C(=O)Nc2ccccc2F)c2ccccc2c1=O)c1cnccn1,60,-,-,-,-,-
CC(C)NC(=O)N[C@H]1C=C[C@H](CC(=O)NC2Cc3ccccc3C2)O[C@H]1CO,-,.,.,-,.,.
C[C@@H]1CN([C@@H](C)CO)C(=O)Cc2cc(NC(=O)C3CCCCC3)ccc2O[C@@H]1CN(C)S(=O)(=O)c1ccc(F)cc1,-,-,.,-,.,.
CC(=O)c1ccccc1NC(=O)COC(=O)CN1C(=O)C2CCCCC2C1=O (stereo not drawn),-,-,40,-,-,-
CCCNC(=O)N1C[C@@H](C)[C@@H](OC)CN(C)C(=O)c2cc(NC(=O)CC)ccc2OC[C@@H]1C,-,-,.,-,.,.
COCCNc1nc(=S)[nH]c2cc(OC)c(OC)cc12,59,-,-,-,.,-
COc1cc2[nH]c(=S)nc(NCCCOC(C)C)c2cc1OC,55,-,42,-,-,-
COc1ccc(CNc2nc(=S)[nH]c3cc(OC)c(OC)cc23)cc1,51,-,-,-,-,-
CCCCNc1nc(=S)[nH]c2cc(OC)c(OC)cc12,60,-,-,-,-,-
C[C@H]1CN([C@@H](C)CO)C(=O)Cc2cc(NC(=O)Cc3ccccc3)ccc2O[C@H]1CN(C)CC1CC1,-,-,.,-,.,.
C[C@H](CO)N1C[C@H](C)[C@H](CN(C)S(=O)(=O)c2cccs2)Oc2ccc(NC(=O)Cc3ccccc3)cc2C1=O,.,-,.,-,.,.
C[C@@H]1CCCCO[C@@H](CN(C)C(=O)c2ccccc2)[C@H](C)CN([C@@H](C)CO)C(=O)c2cc(NS(=O)(=O)c3cccs3)ccc2O1,-,-,.,-,.,.
C[C@H](CO)N1C[C@H](C)[C@H](CN(C)Cc2ccncc2)Oc2cc(-c3ccccc3)ccc2S1(=O)=O,-,-,.,-,.,.
COc1ccc(N(CC(=O)NCc2ccc(C)cc2)S(=O)(=O)c2c(C)[nH]c(=O)[nH]c2=O)cc1,-,-,-,-,-,-
CCOc1ccc(N(CC(=O)NCc2ccc(C)cc2)S(=O)(=O)c2c(C)[nH]c(=O)[nH]c2=O)cc1,-,-,38,-,-,-
CC1(Cc2cc(Cl)ccc2C(F)(F)F)C(=O)Nc2ccc(S(=O)(=O)NC3CCCCC3)cc21 (stereo not drawn),.,-,.,-,70,.
CC1(Cc2ccc(Cl)c(Cl)c2)C(=O)Nc2ccc(S(=O)(=O)NC3CCCCC3)cc21 (stereo not drawn),.,-,.,-,.,.
COCC(=O)N(C)C[C@H]1Oc2ncc(-c3ccc(C)cc3)cc2C(=O)N([C@H](C)CO)C[C@H]1C,-,-,.,-,.,.
COc1ccc(NC(=O)NC2(C)CCS(=O)(=O)C2)cc1 (stereo not drawn),-,-,63,-,-,-
CO[C@H]1CN(C)C(=O)c2cc(NC(=O)c3ccccc3)ccc2OC[C@@H](C)NC[C@@H]1C,-,-,.,-,.,.
C=C(C)C(=O)Nc1cccnc1Oc1ccc(F)cc1,-,-,112,-,-,-
O=C(CC1CC1)Nc1ccc2c(c1)[C@H]1C[C@H](CC(=O)N3CCc4ccccc4C3)O[C@H](CO)[C@H]1O2,-,-,.,-,.,.
CC(=O)Nc1ccc(Sc2ccc([N+](=O)[O-])o2)cc1,-,-,.,-,116,-
CNC(=O)C[C@H]1CC[C@@H]2[C@H](COc3ccc(NC(=O)Nc4ccc(F)cc4)cc3C(=O)N2C)O1,-,-,.,-,.,.
SMILES,ARNT-TACC3 inh,UUG fidelity,CAL PDZ FP-1,PglD inh,Vif imaging,CAL PDZ FP-2
S=C(NCCN1CCOCC1)N/N=C/c1ccccc1,-,-,-,-,-,.
Oc1ccc(/C=N/NC(=S)NCCN2CCOCC2)c(O)c1,60,.,.,.,-,-
COCC(=O)Nc1ccc2c(c1)OC[C@H](C)N(C(=O)c1ccccc1F)C[C@@H](C)[C@H](OC)CN(C)C2=O,-,-,.,-,.,.
COc1ccc(NC(=O)N(C)C[C@@H]2Oc3c(NC(=O)c4nc5ccccc5s4)cccc3C(=O)N([C@H](C)CO)C[C@@H]2C)cc1,-,-,.,-,.,.
C(=N\Nc1nncn1/N=C/c1ccco1)/c1ccco1,64,.,.,.,-,-
CCOC(=O)c1cc(-c2ccccc2)sc1NC(=O)COC(=O)c1ccc(Cl)c(S(N)(=O)=O)c1,-,.,-,.,-,-
CCOC(=O)c1cc(-c2ccccc2)sc1NC(=O)COC(=O)c1cccc(S(N)(=O)=O)c1,.,.,-,.,55,-
COc1ccc(CNC(=O)CCN2C(=S)NC(C)(C)CC2C)cc1 (stereo not drawn),-,-,65,-,-,-
CC1CC(C)(C)NC(=S)N1CCC(=O)NCc1ccc(F)cc1 (stereo not drawn),.,.,-,.,-,-
O=c1c2ccccc2oc2cc(Br)ccc12,-,-,89,-,-,-
Cc1ccc(S(=O)(=O)N2CC[C@@H]3[C@@H](CO)Nc4ccc(C#Cc5ccccc5F)cc4[C@@H]32)cc1,-,-,.,-,.,.
COC(=O)[C@H](C)N(Cc1ccc(Cl)c(Cl)c1)S(=O)(=O)CCN1CCCC1,-,-,35,-,-,-
O=C(COC(=O)C1CCC(N2C(=O)C3C4CCC(C4)C3C2=O)CC1)c1ccc(F)cc1 (stereo not drawn),-,-,79,-,-,-
O=C(CNC(=O)c1ccc2c(c1)OCCO2)N/N=C/c1ccc(Cl)cc1,-,.,70,.,-,-
CN(C)c1nc(C=C(C#N)C#N)c(Cl)n1-c1ccc(F)cc1,-,.,-,.,105,-
Cc1cccc(S(=O)(=O)N2C[C@H]3[C@@H](c4ccccc42)[C@H](CO)N3Cc2ccccn2)c1,20,-,.,-,.,.
COc1ccc(NC(=O)N[C@@H]2CC[C@@H](CCn3cc(-c4ccccc4F)nn3)O[C@@H]2CO)cc1,-,-,.,-,.,.
CCOC(=O)NC(=O)/C(N=Nc1ccc(C(F)(F)F)cc1)=C(\C)O,.,-,45,-,-,-
CC(C)CCNC(=O)NC(=O)COC(=O)/C=C/c1cccc([N+](=O)[O-])c1,-,-,37,-,-,-
CC(C)c1cn(CC[C@H]2CC[C@H](NS(=O)(=O)c3ccccc3)[C@@H](CO)O2)nn1,-,-,.,-,.,.
COc1ccccc1CNC(=O)C[C@@H]1C=C[C@H](NC(=O)CN(C)C)[C@@H](CO)O1,-,.,.,-,.,.
COc1ccc(-c2cnc3c(c2)C(=O)N([C@H](C)CO)C[C@@H](C)[C@@H](CN(C)C(=O)Cc2ccccn2)O3)cc1,-,-,.,-,.,.
CCCc1sc(N/N=C/c2ccccn2)nc1-c1ccc(F)cc1,67,-,-,-,.,-
c1ccc2c(NC3=NCCCCS3)cccc2c1,-,-,34,-,-,.
CCC(=O)Nc1ccc2c(c1)C(=O)N(C)[C@H]1CC[C@H](CC(=O)NCC3CC3)O[C@@H]1CO2,-,-,.,-,.,.
